{"source": "patent US12258584B2", "about": "“Methods and systems for converting precursor cells into intestinal tissues through directed differentiation” (Children's Hospital Medical Center, priority 2010, dated 2025)", "key": {"intestinal organoids": {"test_system": "intestinal organoids", "assay": "Intestinal regionalization of hindgut spheroids in 3D matrigel culture with BMP or noggin", "assay_type": "cell-based, human", "conditions": "3D cultures of hindgut spheroids; after 28 days", "experimental": "For investigating the impact of BMP signaling on intestinal regionalization after hindgut formation, hindgut spheroids were plated in matrigel and BMP or noggin were added to EGF/Rspondid1 containing media. Intestinal organoids were analyzed after 28 days."}, "iPSC3.4": {"test_system": "iPSC3.4", "assay": "Affymetrix microarray analysis of transcript levels during DE formation", "assay_type": "cell-based, human", "conditions": "3-day activin treated vs undifferentiated cultures, label = gene symbol of the transcript", "experimental": "(§1) For microarray analysis, RNA was isolated from undifferentiated and 3-day activin treated hESC and iPSC cultures and used create target DNA for hybridization to Affymetrix Human 1.0 Gene ST Arrays using standard procedures (Affymetrix, Santa Clara, CA). Independent biological triplicates were performed for each cell line and condition. Affymetrix microarray Cel files were subjected to Robust Multichip Average (RMA) normalization in GeneSpring 10.1. Probe sets were first filtered for those that are overexpressed or underexpressed and then subjected to statistical analysis for differential expression by 3 fold or more between undifferentiated and differentiated cultures with p<0.05 using the Students T-test. Log 2 gene expression ratios were then subjected to hierachical clustering using the standard correlation distance metric as implemented in GeneSpring."}, "[1]": {"test_system": "monolayers from human embryonic and induced pluripotent stem cells", "assay": "BMP2 added to monolayers during 96-hour WNT/FGF treatment, regional marker expression", "assay_type": "cell-based", "conditions": "added during 96-hour WNT/FGF (W/F) treatment", "experimental": "Following definitive endoderm (DE) induction with activin (100 ng/ml) for 3 days, a 2-4 day treatment was performed with the indicated combination of factors: Wnt3a (500 ng/ml) and Fgf4 (500 ng/ml), Retinoic acid (RA) in a range of 0.2-20 μM the BMP antagonist Noggin (50 ng/ml), the WNT antagonist […] (1-500 ng/ml)."}, "hESC-H9": {"test_system": "hESC-H9", "assay": "Affymetrix microarray analysis of transcript levels during DE formation", "assay_type": "cell-based, human", "conditions": "3-day activin treated vs undifferentiated cultures, label = gene symbol of the transcript", "experimental": "(§2) FIGS. 6a and 6b illustrate exemplary embodiments in accordance with the present invention, depicting characterization of DE formation from hESC and iPSC lines by immuno-fluorescence (IF) and Microarray analysis. (a) Undifferentiated hESCs stained with the pluripotency marker OCT4 (green) were treated for 3 days with ActivinA. This DE induction protocol routinely results in 80-90% SOX17 (green)/FOXA2 (red) double positive cells in both hESCs and iPSCs. (b) Transcriptional profile of DE induction. hESC-H9 and iPSC lines 3.5, 3.6 and 3.12 were analyzed before and after DE formation (activin differentiation) by Affymetrix DNA microarray analysis.\nas §1, with “Log 2 gene expression ratios were then subjected to hierachical clustering using the standard correlation distance metric as implemented in GeneSpring.” left out"}, "iPSC line 3.12": {"test_system": "iPSC line 3.12", "assay": "Affymetrix microarray analysis of transcript levels during DE formation", "assay_type": "cell-based, human", "conditions": "3-day activin treated vs undifferentiated cultures, label = gene symbol of the transcript", "experimental": "as §2\nas §1, with “Log 2 gene expression ratios were then subjected to hierachical clustering using the standard correlation distance metric as implemented in GeneSpring.” left out"}}}
{"substance": "BMP2: BMP ligand added to WNT/FGF monolayers or 3D organoid cultures to activate BMP signaling", "values": [{"measurement": "expression of CA1 (carbonic anhydrase-colonocyte marker) compared to Nog/EGF/Rspo1 cocktail without BMP2", "setting": "intestinal organoids", "result": "increased expression"}, {"measurement": "expression of HOXD13 compared to Nog/EGF/Rspo1 cocktail without BMP2", "setting": "intestinal organoids", "result": "increased expression"}, {"measurement": "relative expression of PDX1 compared to Nog/EGF/Rspo1 cocktail without BMP2", "setting": "intestinal organoids", "result": "decreased relative expression"}, {"measurement": "[Diff'd-iPSC3.4] vs [Undiff d-iPSC3.4] (folds), variation of transcript level during DE formation", "setting": "iPSC3.4", "result": 6.96, "unit": "folds"}, {"measurement": "expression of GATA4 compared to W/F alone", "setting": "[1]", "result": "decreased expression"}, {"measurement": "expression of HOXA13 compared to W/F alone", "setting": "[1]", "result": "increased expression"}, {"measurement": "expression of HOXC9 (distal small bowel and proximal colon) compared to W/F alone", "setting": "[1]", "result": "increased expression"}, {"measurement": "expression of HOXD13 compared to W/F alone", "setting": "[1]", "result": "increased expression"}, {"measurement": "DIFF'D-H9] VS [IFF'D-H9] (folds), variation of transcript level during DE formation", "setting": "hESC-H9", "result": 5.95, "unit": "folds"}, {"measurement": "[DIFF'D-IPSC3.12] VS [IFF'D-IPSC3.12] (folds), variation of transcript level during DE formation", "setting": "iPSC line 3.12", "result": 7.43, "unit": "folds"}]}
